Laboratory results published in patent US9914723B2, “Small molecule inhibitors of Mcl-1 and uses thereof” (THE REGENTS OF THE UNIVERSITY OF MICHIGAN, priority 2012, dated 2018).

By UniProt entry, the sequences of proteins in these tests, tags left out.
UniProt Q07820, whole entry: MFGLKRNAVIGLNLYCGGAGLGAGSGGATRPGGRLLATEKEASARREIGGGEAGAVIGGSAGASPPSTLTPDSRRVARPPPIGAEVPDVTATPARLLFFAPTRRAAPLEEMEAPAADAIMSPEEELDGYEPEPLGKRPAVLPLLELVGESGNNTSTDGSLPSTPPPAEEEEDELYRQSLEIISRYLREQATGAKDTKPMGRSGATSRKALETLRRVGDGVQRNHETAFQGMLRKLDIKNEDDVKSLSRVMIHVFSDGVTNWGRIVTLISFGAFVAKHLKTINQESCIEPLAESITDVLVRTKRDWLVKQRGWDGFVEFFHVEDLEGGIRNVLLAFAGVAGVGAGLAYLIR
UniProt Q16548, whole entry: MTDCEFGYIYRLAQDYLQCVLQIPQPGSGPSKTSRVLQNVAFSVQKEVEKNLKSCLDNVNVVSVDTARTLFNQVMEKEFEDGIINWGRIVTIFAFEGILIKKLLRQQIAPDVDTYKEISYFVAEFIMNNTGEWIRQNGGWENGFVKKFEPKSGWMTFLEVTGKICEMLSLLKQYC
UniProt Q92843, whole entry: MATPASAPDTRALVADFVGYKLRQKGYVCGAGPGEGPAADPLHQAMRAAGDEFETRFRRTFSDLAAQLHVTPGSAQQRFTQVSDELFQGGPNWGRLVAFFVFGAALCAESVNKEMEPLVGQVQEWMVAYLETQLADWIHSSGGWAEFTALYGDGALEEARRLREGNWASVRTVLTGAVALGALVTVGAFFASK
UniProt P10415, whole entry: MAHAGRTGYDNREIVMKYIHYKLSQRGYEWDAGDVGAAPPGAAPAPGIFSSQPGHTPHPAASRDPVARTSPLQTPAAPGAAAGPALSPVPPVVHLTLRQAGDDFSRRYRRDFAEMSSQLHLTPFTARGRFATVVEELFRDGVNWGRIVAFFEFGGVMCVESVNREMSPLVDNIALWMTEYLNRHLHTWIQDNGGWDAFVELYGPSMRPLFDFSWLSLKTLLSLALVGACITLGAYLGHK
UniProt Q07817, whole entry: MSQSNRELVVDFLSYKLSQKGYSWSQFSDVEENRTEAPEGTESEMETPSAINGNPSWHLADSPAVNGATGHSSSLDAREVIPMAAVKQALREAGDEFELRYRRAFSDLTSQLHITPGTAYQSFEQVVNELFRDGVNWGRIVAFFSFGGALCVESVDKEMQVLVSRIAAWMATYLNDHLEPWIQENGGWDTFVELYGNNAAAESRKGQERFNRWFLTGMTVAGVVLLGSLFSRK

Experiments:
[1] = target: T1, Mcl-1 (Homo sapiens, UniProt Q07820); experiment: fluorescence polarizing binding assay, binding to Mcl-1
[2] = target: T1, Mcl-1; experiment: Binding affinity against Bcl-2 family anti-apoptotic proteins: Mcl-1; conditions: read-out: Mcl-1 Ki
[3] = target: A1 (Homo sapiens, UniProt Q16548); experiment: Binding affinity against Bcl-2 family anti-apoptotic proteins: A1; conditions: read-out: A1 Ki
[4] = target: Bcl-w (Homo sapiens, UniProt Q92843); experiment: Binding affinity against Bcl-2 family anti-apoptotic proteins: Bcl-w; conditions: read-out: Bcl-w Ki
[5] = target: Bcl-2 (Homo sapiens, UniProt P10415); experiment: Binding affinity against Bcl-2 family anti-apoptotic proteins: Bcl-2; conditions: read-out: Bcl-2 Ki
[6] = target: Bcl-xL (Homo sapiens, UniProt Q07817); experiment: Binding affinity against Bcl-2 family anti-apoptotic proteins: Bcl-xL; conditions: read-out: Bcl-xL Ki

| Structure (SMILES) | fold decrease of binding affinity to Mcl-1 ([1]; in comparison with UMI-1033) [fold] | IC50 ([1]; read-out: IC50 for binding to Mcl-1, fluorescence polarizing binding assay) [µM] | Ki [2] [µM] | Ki [3] [µM] | Ki [4] [µM] | Ki [5] [µM] | Ki [6] [µM] |
| --- | --- | --- | --- | --- | --- | --- | --- |
| CCOC(=O)c1c(C)oc2c1c(C(OC)c1ccncc1)c(O)c1ccccc12 (stereo not shown) | 125 | 9.35 |  |  |  |  |  |
| CCOC(=O)c1c(C(C)(C)C)oc2c1c(C(c1ccncc1)N1CCN(C)CC1)c(O)c1ccccc12 (stereo not shown) |  |  | 0.12 | > 25 | 33 | > 30 | > 30 |
